Source: PMC9391358, “Crystal structures reveal catalytic and regulatory mechanisms of the dual-specificity ubiquitin/FAT10 E1 enzyme Uba6” (Nature Communications, 2022)

Target: T1, Uba1 (Uba1_WT) (Homo sapiens, UniProt P22314)
T1 sequence (P22314 2-1058): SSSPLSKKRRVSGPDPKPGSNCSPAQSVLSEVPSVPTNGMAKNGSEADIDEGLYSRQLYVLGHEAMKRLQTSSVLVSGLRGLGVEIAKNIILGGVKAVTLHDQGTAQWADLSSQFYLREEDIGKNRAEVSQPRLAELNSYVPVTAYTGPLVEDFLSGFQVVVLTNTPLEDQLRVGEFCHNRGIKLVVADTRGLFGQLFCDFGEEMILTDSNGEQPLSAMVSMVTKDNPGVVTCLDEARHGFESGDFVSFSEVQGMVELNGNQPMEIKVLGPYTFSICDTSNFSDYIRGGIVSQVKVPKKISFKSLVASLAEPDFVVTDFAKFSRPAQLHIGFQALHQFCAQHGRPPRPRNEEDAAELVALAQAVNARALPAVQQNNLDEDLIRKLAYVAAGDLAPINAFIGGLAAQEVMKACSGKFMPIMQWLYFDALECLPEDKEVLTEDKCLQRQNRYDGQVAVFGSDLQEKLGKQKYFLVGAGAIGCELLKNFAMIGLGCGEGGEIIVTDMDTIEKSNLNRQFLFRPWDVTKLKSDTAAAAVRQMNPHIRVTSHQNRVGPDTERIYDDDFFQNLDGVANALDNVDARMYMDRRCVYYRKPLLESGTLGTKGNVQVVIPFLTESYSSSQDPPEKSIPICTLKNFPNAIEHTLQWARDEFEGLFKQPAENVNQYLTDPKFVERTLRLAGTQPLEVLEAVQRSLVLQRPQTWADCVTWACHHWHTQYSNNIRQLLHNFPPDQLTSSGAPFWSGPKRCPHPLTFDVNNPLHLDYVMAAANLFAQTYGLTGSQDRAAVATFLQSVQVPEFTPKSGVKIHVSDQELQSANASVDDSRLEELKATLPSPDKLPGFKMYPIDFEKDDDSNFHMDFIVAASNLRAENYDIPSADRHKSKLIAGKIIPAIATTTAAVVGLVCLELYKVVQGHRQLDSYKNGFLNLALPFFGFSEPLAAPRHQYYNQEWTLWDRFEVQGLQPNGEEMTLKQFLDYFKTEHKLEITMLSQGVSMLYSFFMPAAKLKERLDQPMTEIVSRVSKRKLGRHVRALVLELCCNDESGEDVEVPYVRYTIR
Settings: 25 °C, 20 mM HEPES pH 7.5, 150 mM NaCl, 0.5 mM TCEP; full-length or SCCH domain not told

O=P(O)(O)O[C@H]1[C@H](OP(=O)(O)O)[C@@H](OP(=O)(O)O)[C@H](OP(=O)(O)O)[C@@H](OP(=O)(O)O)[C@H]1OP(=O)(O)O [InsP6]
isothermal titration calorimetry: Uba1 fails to exhibit detectable binding under the same conditions
